Measurements from patent publication US7816520B2, “5,6-diphenyl-1,2,4-triazinic dimeric derivatives and the use thereof in the form of sun-protective agents” (Pierre Fabre Dermo-Cosmetique, priority 2004, dated 2010).

How the values were obtained:
[1] = Spectral distribution in UVA and UVB, 290 nm to 400 nm; assay type: physicochemical; details: for Absorption peaks: range from 290 nm to 400 nm
From the text: The products tested are classified according to spectral distribution in UVA and UVB in a range from 290 nm to 400 nm. It is possible to differentiate them according to their spectral distribution: Products with a narrow spectrum: • Products absorbing in the range between 280 nm and 320 nm (UVB) • Products absorbing in the range between 320 nm and 400 nm (UVA) Products with a broad spectrum: • Products absorbing in UVB (280-320 nm) and UVA-II […] • Products covering UVB and UVA (280-400 nm).

[2] = Spectral characteristics: molar extinction coefficient and specific absorbance (UV spectrophotometry in ethyl acetate); assay type: physicochemical; details: 10 μg/ml
From the text: The calculation of the molar extinction coefficient (ε) is made from the Beer-Lambert law:
[formula] Wherein: • A=absorbance • I0=intensity of the incident light • I=intensity of the transmitted light • ε=molar extinction (or molar absorbance) coefficient in M^−1 cm^−1 • l=path length in cm • c=concentration in mol/l
The molar extinction coefficient can be expressed with respect to a given mass of the product. It thus makes it possible to be able to compare the coefficients of extinction between products for the same given quantity. This quantity is 1% by weight. The molar extinction coefficient thus becomes the specific absorbance (A1cm^1%).
It is expressed as follows:
[formula] Wherein: • A1cm^1%=specific absorbance • ε=molar extinction coefficient • M=molar mass
The spectral characteristics of the compounds in comparison with commercial filters at a concentration of 10 μg/ml are summarized in tables 2-1 and 2-2.
Procedure: The products are dissolved in ethyl acetate to a concentration of 10 μg/ml. The spectra are measured using a dual-beam spectrophotometer (Varian CARY 50 Scan) between 290 nm and 400 nm.

| Compound | Spectral distribution (UV bands absorbed) ([1]; absorption spectra, FIGS. 1-3) | Absorption peaks [1] [nm] | Maximum molar extinction coefficient UVA ([2]; UVA band) [M⁻¹ cm⁻¹] | Maximum specific absorbance UVA ([2]; A1cm^1%, UVA band) | Wavelength of maximum molar extinction coefficient UVA ([2]; the 'at ...' part of the cell) | Wavelength of maximum specific absorbance UVA ([2]; the 'at ...' part of the cell) [nm] |
| --- | --- | --- | --- | --- | --- | --- |
| 1,4-bis[5,6-(4,4′-dihexyl)-diphenyl-1,2,4-triazin-3-yl]benzene [WP96] | absorb in UVB and UVA | 335 | 56000 | 638 | at 335 nm | 335 |
| Cc1ccc(-c2nnc(-c3ccc(-c4nnc(-c5ccc(C)cc5)c(-c5ccc(C)cc5)n4)cc3)nc2-c2ccc(C)cc2)cc1 [WP39, 1,4-bis[5,6-(4,4′-dimethyl)-diphenyl-1,2,4-triazin-3-yl]benzene] | – | 335 | – | – | – | – |
| CCCCCCCCCCCCc1ccc(-c2nnc(-c3ccc(-c4nnc(-c5ccc(CCCCCCCCCCCC)cc5)c(-c5ccc(CCCCCCCCCCCC)cc5)n4)cc3)nc2-c2ccc(CCCCCCCCCCCC)cc2)cc1 [WP107, 1,4-bis[5,6-bis(4-dodecylphenyl)-1,2,4-triazine-3-yl]benzene] | – | 335 | – | – | – | – |
